Experimental data from patent publication US20250042918A1, “COMPOUNDS” (Fundación Del Sector Públlco Estatal Centro Nacional De …, priority 2021, published 2025).

By UniProt entry, the sequences of proteins in these tests, tags left out.
UniProt P11309, whole entry: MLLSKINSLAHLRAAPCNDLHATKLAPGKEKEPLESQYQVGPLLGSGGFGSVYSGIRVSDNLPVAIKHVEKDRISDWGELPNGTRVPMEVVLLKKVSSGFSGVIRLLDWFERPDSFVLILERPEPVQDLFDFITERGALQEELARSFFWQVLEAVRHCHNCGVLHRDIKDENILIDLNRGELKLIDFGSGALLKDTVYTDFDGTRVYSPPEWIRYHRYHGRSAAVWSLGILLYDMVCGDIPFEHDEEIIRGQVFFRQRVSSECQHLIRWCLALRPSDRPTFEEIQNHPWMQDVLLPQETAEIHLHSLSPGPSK
UniProt Q9P1W9, whole entry: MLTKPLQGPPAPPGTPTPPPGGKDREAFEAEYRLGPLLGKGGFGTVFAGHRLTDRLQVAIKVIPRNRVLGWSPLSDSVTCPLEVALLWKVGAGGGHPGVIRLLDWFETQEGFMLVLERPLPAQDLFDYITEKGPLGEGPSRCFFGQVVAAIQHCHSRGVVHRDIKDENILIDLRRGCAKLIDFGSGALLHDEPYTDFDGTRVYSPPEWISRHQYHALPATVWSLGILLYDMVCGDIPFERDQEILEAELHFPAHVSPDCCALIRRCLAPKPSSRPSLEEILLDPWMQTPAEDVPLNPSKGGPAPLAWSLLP

Tests used:
PIM-1 = PIM-1 (Homo sapiens, UniProt P11309); assay: Protein PIM kinase assay (ADP Hunter Plus); settings: read-out: PIM-1 IC50; 100 μM ATP, 100 μM PIMtide
Experimental: (§1) PIM kinase activities were measured by using the commercial ADP Hunter™ Plus assay (DiscoveRx Ref. #33-016), a homogeneous assay measuring ADP accumulation, as a universal product of kinase activity. PIM-1 and PIM-2 proteins were obtained by purification as it is described by Martinez-Gonzalez et. al. Eur. J. Med Chem. 2019, 168, 87-109 and PIM-3 was acquired from Millipore (Cat #14-738). The assay was done following general manufacturer recommendations and adapting protein and substrates concentrations to optimal conditions. Kinase buffer was 15 mM HEPES, pH 7.4, 20 mM NaCl, 1 mM EGTA, 0.02% Tween-20, 10 mM MgCl2 and 0.1 mg/mL LBGG (bovine y-globulin). All PIM kinases assays were done at 100 μM PIM tide (ARKRRRHPSGPPTA), as peptide substrate, and 100 μM ATP. Protein concentration was 50, 350 and 200 pg/μl for PIM-1, 2 and 3, respectively. In order to calculate the IC50 of described compounds, serial 1:3 dilutions were prepared and the reaction started by addition of ATP. Incubation was done for 1 h at 25° C. Reagents A and B (DiscoveRx) were sequentially added to the wells and plates were incubated for 30 min at 37° C. Fluorescence counts were read in a Victor instrument (Perkin Elmer) with the recommended settings (544 and 580 nm as excitation and emission wavelengths, respectively). Values were plot against inhibitor concentration and fit to a sigmoid dose-response curve using Activity Base software from IDBS.

PIM-2 = PIM-2 (Homo sapiens, UniProt Q9P1W9); assay: Protein PIM kinase assay (ADP Hunter Plus); settings: read-out: PIM-2 IC50; 100 μM ATP, 100 μM PIMtide
Experimental: as §1

PIM-3 = PIM-3 (Homo sapiens, UniProt Q86V86); assay: Protein PIM kinase assay (ADP Hunter Plus); settings: read-out: PIM-3 IC50; 100 μM ATP, 100 μM PIMtide
Experimental: as §1

[1] = system: BAD S112 phosphorylation in H1299 cells overexpressing PIM-1 (H1299Pim1); assay: BAD S112 phosphorylation inhibition assay (in Cell ELISA); settings: read-out: BAD PH 1299PIM 1 ELIWO, 4 hours, medium without FBS
Experimental: The efficacy of the compounds of the invention on the inhibition of BAD phosphorylation was measured by an in Cell ELISA.
Materials: H1299 cells overexpressing PIM-1 (H1299Pim1). DMSO Plates: 96-well-Polystyrene, Untreated, Round-Bottom plates from Costar (Cat #3797). Cell Plates: 96-Flat bottom biocoated with Poly-D-Lysin plates with lid from Becton Dickinson (Cat #354651). Cell Culture Medium: DMEM high glucose, 10% Fetal Bovine Serum, 2 mM L-Glutamine, P/S. Antibodies: phospho BAD S112 antibody from Cell Signaling (cat. #9291S), anti-rabbit conjugated with peroxidase from Amersham (cat. #3619). Reagent: SuperSignal ELISA femto from Pierce (cat. #1001110).
Procedure: Cells were seeded in 15000 cells per 200 μl per well into 96-well plates and incubated for 16 h at 37° C., 5% CO2. On day two, nine serial 1:2 compound dilutions were made in DMSO in a 96-well plate. The compounds were added to duplicate wells in 96-well cell plates using a FX BECKMAN robot (Beckman Coulter) and were incubated at 37° C. under CO2 atmosphere in medium without fetal bovine serum (FBS). After 4 hours, relative levels of BAD S112 phosphorylation were measured in Cell ELISA using SuperSignal ELISA Femto substrate (Pierce) and read on VICTOR (Perkin Elmer). EC50 values were calculated using ActivityBase from IDBS.

CN1CCOc2c1c(N[C@H]1CC[C@H](O)CC1)nn1c(-c3cccc(OC(F)(F)F)c3)nnc21 showed an IC50 (PIM-1) of 0.001 to 0.005 µM, an IC50 (PIM-2) of 0.005 to 0.01 µM and an IC50 (PIM-3) of 0.01 to 0.05 µM. It also gave an EC50 [1] greater than 10 µM.
